To fix the notation:
B1: Alpha-1-antitrypsin, P01009 (parent)
chain: MPSSVSWGILLLAGLCCLVPVSLAEDPQGDAAQKTDTSHHDQDHPTFNKITPNLAEFAFSLYRQLAHQSNSTNIFFSPVSIATAFAMLSLGTKADTHDEILEGLNFNLTEIPEAQIHEGFQELLRTLNQPDSQLQLTTGNGLFLSEGLKLVDKFLEDVKKLYHSEAFTVNFGDTEEAKKQINDYVEKGTQGKIVDLVKELDRDTVFALVNYIFFKGKWERPFEVKDTEEEDFHVDQVTTVKVPMMKRLGMFNIQHCKKLSSWVLLMKYLGNATAIFFLPDEGKLQHLENELTHDIITKFLENEDRRSASLHLPKLSITGTYDLKSVLGQLGITKVFSNGADLSGVTEEAPLKLSKAVHKAVLTIDEKGTEAAGAMFLEAIPMSIPPEVKFNKPFVFLMIEQNTKSPLFMGKVVNPTQK

Where “and” joins values, the source holds several entries; their conditions need not be identical. Identical values can stand only once.

This series covers variants of B1. Particulars: Homo sapiens, pH 7.8, Tris 50 mM, reversible: yes, structure 1QLP, whole UniProt chain shown; for denaturant m value / denaturant midpoint (higher = more stable) / unfolding free energy: 25 °C, GdnHCl, transition: 3; for Tm: Thermal.

Take Y184A: under “CD, NaCl 50 mM”, the denaturant m value stood at 0.71 kcal/mol/M; the “denaturant midpoint (higher = more stable)” value (shortened to “denaturant midpoint”) is 2.8 M; the unfolding free energy turned out to be 2 kcal/mol; the Tm (as a rule, the temperature at which the thermal transition is half complete) stood at 54 °C. Further, where the note is “Fluorescence, KI 2 M”, the denaturant m value was determined as 7.9 kcal/mol/M, the “denaturant midpoint” value amounted to 0.5 M and the unfolding free energy was determined as 4.3 kcal/mol.
On to Y184W, for which, for the setting “CD, NaCl 50 mM”, the “denaturant midpoint” value was 1 M and 2.9 M; the unfolding free energy is 4.2 kcal/mol and 2 kcal/mol; the Tm came to 65 °C.
